Source: PubChem BioAssay AID2017 (National Center for Advancing Translational Sciences (NCATS), 2009)
The entries are a selection whose mix differs from that of the whole data set. Results filed as inconclusive are left out. Calls of active or inactive are those of the source. Calls come from the whole dose curve; as a rule, active = well fitted curve in the direction sought with a large enough effect; inconclusive = small, poorly fitted or top-dose-only effect, or another doubt; inactive = no such curve, though single readings can be large or run the other way.

These compounds were tested on 4-diphosphocytidyl-2-C-methyl-D-erythritol kinase IspE (bacterial, species not stated) (assay: Confirmatory Assay for Inhibitors of Human Galactokinase (GALK): CDP-Me assay counterscreen). Details: ATP depletion, Kinase-Glo luminescence; at 115 µM (top of the series).
Description: NIH Molecular Libraries Probe Production Centers Network [MLPCN] NIH Chemical Genomics Center [NCGC] MLPCN Grant: R03 MH085689-01 Assay Submitter (PI): Kent Lai (University of Utah School of Medicine, 50 N Mario Capecchi Drive, Salt Lake City, UT 84132) NCGC Assay Overview The GHMP kinase family is a unique class of important enzymes that plays an essential role in many metabolic processes. It contains more than 170 protein members among which are the galactokinase (GALK) and the CMK enzymes. GALK plays a crucial role in galactose processing and is a potential therapeutic target for Classic Galactosemia (OMIM: 230400). CMK is involved for the non-mevalonate synthesis of isoprenoids precursors and natural products like sterols or ubiquinones which are important to many biological functions. Although the sequence identity between GALK and CMK is low, the three-dimensional structures and active sites are highly similar. Therefore to determine the validity and selectivity of an active compound observed in the GALK qHTS screen (AID: 1868), a bioluminescent counter-screen targeting bacterial CMK was developed. In addition, because the mevalonate independent synthesis of isoprenoids are more prevalent in opportunistic pathogens such as bacteria, CMK is a potential novel therapeutic target where selective inhibitors could be used to determine potential antibacterial effects. The CMK (provided by Kent Lai) was assayed using ATP and 4-diphosphocytidyl-2-C-methyl-D-erythritol (CDP-ME; Echelon, cat# I-M052) as substrates. Promega Kinase-Glo Plus (cat# V3774) technology was used to detect the residual ATP following kinetic reaction. Briefly, the Kinase-Glo Plus contains Ultra-Glo [5] luciferase and D-luciferin which generates a bioluminescence signal from the remaining ATP.
NCGC Assay Protocol Summary: Three uL/well of substrate solution (15 uM ATP, 30 uM CDP-ME, 20 mM HEPES pH8.0, 5 mM MgCl2, 40 mM KCl, 1 mM DTT, 0.01% BSA final concentration) was dispensed into 1536-well, assay plates (Greiner, solid white medium-binding plates) with Aurora Discovery BioRAPTR Flying Reagent Dispenser (FRD; Beckton-Dickenson). […] One uL/well enzyme solution (0.25 ug/mL CDP-Me kinase, 20 mM HEPES pH8.0, 5 mM MgCl2, 40 mM KCl, 1 mM DTT, 0.01% BSA final concentration) was then added using the FRD yielding a total kinase reaction volume of 4 uL/ well. After 1 hour of room temperature incubation, 4 uL Kinase-Glo Plus reagent was added for a final assay volume of 8 uL/well. After 1 min, luminescence was detected with the ViewLux plate reader (Perkin Elmer, Waltham, MA) using a 1 sec exposure time and 2x binning settings.
In the case of O=c1oc2ccccc2c(O)c1C(c1ccc([N+](=O)[O-])cc1)c1c(O)c2ccccc2oc1=O, the activity change, negative = inhibition is reported as inactive: -6.54%.
In the case of CCn1nc(-c2ccccc2)nc2c(=O)n(C)c(=O)nc1-2, the activity change, negative = inhibition is reported as inactive: -17.1%.
In the case of COC(=O)c1nc(-c2ccc3c(n2)C(=O)C(N)=C(OC)C3=O)c(N)c(-c2ccc(OC)c(OC)c2O)c1C, the activity change, negative = inhibition is reported as inactive: -10.4%.
With CCn1nc(-c2cccs2)nc2c(=O)n(C)c(=O)nc1-2 the activity change, negative = inhibition was inactive: -16.4%.
